Assay results taken from patent US8404279B2, “Method for improving the bud quality of a plant” (Bayer CropScience AG, priority 2007, dated 2013).

Tested on: pear trees (Conference cultivar)
Conditions: after the applications in 2004
From the text: During the 2004 trial, three products were compared in an arbitrary block design with 10 trees per plot in four repeats: the observations were made on the 8 trees inside the plot. […] The applications were in the post-flower period at an interval of 10 days.
In 2005, the same applications were repeated on the same trees.

Substance: potassium phosphonate
- phytotoxicity: some phytotoxicity
